Sequences of proteins named here, by UniProt entry; tags and fusion partners are left off.
UniProt E9Q401, whole entry R4495C: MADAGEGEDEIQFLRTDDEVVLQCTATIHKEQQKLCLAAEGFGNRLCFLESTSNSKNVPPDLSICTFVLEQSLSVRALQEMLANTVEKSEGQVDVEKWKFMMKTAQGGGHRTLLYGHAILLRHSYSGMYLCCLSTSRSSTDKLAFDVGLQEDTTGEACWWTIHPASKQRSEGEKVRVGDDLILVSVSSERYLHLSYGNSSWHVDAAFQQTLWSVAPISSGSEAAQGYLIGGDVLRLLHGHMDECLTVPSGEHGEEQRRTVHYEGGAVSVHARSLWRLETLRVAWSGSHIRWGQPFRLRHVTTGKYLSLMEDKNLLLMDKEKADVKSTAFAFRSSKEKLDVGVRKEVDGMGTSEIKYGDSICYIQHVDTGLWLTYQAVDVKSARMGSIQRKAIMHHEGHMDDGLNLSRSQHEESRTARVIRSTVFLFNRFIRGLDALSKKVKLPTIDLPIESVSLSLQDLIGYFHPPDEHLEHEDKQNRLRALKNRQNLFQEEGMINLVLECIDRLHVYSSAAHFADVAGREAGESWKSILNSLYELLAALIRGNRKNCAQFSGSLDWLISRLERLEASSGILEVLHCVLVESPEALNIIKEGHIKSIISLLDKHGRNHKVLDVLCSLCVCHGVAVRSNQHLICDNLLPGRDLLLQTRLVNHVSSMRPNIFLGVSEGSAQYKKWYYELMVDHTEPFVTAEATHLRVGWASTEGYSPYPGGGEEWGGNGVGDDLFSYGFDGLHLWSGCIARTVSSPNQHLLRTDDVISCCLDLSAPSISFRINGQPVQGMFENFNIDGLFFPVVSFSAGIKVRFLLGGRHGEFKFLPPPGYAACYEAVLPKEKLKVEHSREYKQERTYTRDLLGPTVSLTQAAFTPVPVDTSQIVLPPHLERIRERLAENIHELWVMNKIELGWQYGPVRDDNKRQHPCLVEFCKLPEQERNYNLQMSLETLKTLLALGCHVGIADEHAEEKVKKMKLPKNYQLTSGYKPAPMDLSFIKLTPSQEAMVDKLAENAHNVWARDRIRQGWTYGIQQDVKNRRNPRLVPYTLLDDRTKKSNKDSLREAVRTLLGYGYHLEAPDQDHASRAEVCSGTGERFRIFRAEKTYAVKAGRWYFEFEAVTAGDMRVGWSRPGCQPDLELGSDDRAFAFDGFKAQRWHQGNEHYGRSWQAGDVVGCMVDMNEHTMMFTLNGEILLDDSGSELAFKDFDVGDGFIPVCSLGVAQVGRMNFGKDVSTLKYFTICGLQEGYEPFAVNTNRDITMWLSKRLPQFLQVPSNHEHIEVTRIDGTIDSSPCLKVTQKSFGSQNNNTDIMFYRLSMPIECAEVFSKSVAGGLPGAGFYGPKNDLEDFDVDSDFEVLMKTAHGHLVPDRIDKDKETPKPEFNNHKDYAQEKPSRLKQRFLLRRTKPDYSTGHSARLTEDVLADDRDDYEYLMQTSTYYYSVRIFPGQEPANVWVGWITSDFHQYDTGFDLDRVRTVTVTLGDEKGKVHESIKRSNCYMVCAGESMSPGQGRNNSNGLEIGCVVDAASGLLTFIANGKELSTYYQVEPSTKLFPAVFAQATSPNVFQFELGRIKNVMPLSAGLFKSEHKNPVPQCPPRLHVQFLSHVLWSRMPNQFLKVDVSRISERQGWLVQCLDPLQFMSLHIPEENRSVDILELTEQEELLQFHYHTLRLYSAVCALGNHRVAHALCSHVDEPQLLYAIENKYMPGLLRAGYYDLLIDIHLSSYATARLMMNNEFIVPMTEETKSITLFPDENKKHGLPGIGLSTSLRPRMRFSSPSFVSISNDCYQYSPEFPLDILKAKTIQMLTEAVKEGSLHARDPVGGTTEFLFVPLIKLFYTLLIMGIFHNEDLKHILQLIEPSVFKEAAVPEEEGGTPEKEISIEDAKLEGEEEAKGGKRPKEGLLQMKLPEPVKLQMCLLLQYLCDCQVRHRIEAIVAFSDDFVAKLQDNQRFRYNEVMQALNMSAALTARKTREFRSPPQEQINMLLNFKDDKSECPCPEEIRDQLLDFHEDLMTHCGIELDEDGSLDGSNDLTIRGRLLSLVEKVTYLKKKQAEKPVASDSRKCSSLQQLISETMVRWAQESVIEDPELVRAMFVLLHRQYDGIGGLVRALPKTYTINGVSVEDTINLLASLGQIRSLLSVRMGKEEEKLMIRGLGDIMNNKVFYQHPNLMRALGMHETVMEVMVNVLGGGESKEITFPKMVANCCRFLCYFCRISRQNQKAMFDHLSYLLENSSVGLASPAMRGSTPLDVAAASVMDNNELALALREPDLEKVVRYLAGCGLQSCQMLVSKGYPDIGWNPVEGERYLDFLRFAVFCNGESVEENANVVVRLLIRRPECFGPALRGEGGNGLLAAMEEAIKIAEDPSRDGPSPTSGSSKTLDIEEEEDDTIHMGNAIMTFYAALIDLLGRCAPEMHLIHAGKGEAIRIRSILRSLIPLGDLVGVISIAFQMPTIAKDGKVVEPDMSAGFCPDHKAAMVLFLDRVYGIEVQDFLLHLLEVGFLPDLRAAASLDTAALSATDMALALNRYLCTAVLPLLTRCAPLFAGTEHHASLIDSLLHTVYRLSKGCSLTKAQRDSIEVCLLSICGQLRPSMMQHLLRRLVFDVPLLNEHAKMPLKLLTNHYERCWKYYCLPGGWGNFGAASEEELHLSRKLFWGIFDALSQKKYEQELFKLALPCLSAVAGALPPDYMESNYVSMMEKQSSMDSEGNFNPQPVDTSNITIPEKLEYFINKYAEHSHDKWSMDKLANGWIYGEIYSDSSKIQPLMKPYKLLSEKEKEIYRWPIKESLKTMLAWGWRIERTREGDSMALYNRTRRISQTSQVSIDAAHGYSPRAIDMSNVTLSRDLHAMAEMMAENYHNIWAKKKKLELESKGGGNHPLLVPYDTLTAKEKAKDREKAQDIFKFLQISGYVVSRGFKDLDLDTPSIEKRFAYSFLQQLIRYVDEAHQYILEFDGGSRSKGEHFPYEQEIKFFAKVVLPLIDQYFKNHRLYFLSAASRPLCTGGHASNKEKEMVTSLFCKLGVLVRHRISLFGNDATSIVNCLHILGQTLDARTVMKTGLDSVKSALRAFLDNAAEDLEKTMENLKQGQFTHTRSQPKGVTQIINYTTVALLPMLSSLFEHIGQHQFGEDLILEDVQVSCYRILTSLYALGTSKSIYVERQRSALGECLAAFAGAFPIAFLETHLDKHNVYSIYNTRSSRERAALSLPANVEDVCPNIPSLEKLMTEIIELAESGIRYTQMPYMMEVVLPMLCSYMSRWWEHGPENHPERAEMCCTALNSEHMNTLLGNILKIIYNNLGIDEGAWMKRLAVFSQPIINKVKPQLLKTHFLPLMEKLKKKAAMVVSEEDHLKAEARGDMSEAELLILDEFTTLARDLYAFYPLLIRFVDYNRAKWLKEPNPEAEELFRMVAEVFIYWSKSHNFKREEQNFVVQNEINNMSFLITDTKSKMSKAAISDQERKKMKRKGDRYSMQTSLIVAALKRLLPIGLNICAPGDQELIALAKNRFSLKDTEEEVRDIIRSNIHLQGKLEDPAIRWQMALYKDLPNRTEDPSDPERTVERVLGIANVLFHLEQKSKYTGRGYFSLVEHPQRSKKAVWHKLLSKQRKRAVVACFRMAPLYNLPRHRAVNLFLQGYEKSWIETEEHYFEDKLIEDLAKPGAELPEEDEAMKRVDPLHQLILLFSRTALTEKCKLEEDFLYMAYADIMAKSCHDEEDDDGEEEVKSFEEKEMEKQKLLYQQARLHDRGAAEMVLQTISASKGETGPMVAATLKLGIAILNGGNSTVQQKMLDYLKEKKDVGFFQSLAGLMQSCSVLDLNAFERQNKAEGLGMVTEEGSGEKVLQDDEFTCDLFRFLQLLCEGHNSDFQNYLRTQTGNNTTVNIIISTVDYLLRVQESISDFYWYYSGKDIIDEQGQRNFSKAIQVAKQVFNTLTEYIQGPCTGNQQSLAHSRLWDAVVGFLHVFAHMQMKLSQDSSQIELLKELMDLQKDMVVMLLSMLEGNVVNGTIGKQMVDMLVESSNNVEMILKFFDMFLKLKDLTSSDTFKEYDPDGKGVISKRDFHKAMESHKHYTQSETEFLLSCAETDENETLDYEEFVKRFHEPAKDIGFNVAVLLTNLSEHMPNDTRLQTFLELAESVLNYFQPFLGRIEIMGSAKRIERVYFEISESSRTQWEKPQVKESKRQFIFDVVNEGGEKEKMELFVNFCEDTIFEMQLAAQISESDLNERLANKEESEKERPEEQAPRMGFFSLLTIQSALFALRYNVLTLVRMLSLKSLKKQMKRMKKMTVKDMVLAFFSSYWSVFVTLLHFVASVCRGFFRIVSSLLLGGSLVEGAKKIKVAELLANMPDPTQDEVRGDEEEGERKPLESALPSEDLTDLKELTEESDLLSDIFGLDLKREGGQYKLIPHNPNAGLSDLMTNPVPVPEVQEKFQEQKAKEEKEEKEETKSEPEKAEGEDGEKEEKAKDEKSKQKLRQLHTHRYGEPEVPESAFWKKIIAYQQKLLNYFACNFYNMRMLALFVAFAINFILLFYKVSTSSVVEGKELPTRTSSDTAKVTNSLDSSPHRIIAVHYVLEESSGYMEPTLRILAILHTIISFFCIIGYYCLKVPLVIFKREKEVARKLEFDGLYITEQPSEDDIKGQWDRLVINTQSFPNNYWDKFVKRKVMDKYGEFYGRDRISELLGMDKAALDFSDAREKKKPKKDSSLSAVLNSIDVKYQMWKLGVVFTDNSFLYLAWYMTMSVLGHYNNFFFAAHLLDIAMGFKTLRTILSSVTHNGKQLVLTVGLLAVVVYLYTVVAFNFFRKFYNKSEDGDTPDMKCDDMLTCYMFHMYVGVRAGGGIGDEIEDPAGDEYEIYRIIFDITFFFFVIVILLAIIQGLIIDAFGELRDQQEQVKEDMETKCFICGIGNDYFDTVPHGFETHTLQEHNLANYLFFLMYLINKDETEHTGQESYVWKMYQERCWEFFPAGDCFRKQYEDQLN

In patent publication US8703804B2, “Ryanodine receptor inhibitors and methods relating thereto” (UTI Limited Partnership, priority 2006, dated 2014):

Legend:
β-adrenergic receptors = assay: β-blocking activity of carvedilol reported in the literature (Yao et al., 2003); assay type: cell-based
Experimental: The β-blocking effect of the selected compounds may be tested in freshly isolated rat cardiac myocytes. Cardiac cells are isolated, loaded with fluo-4 AM, and bathed in a standard solution containing low Ca^2+ concentrations (1-2 mM). Cells are then stimulated by a train of short pulses (˜10 ms, 0.25 Hz), and the resulting intracellular Ca^2+ transients will be monitored using a fluorescence microscope. Cells will be pretreated with or without increasing concentrations of a selected compound, followed by the addition of isoproterenol (0.1-1 μM), an agonist of the β-adrenergic receptor known to augment intracellular Ca^2+ transients. The extent of inhibition on isoproterenol-induced augmentation of Ca^2+ transients under each condition will be measured and used to determine the IC50 of β-blocking activity for each selected compound. Using a procedure similar to that described above, the IC50 of β-blocking activity of carvedilol has been reported to be 1-2 nM (Yao et al., 2003). In certain embodiments, compounds of the present invention have little or moderate β-blocking activity.

RyR2 channel = target: T1, RyR2 channel (Mus musculus, UniProt E9Q401, R4495C); assay: Ca2+ dependence of [3H]ryanodine binding (sensitivity of RyR2 to Ca2+ activation, CICR); assay type: biochemical; details: 30 μM (FIG. 4D)
T1 construct: expressed in transfected cells; host or cells: HEK293 (cell lysate, detergent-solubilised)
Description: (§1) Intracellular Ca^2+ transients were monitored using single cell Ca^2+ imaging.
Alternatively, the effect of compounds on CICR may be determined using [^3H]ryanodine binding. As CICR is dependent, to a large extent, on the sensitivity of the RyR2 channel to activation by Ca^2+, the effect of a compound on CICR may be determined by assessing the impact of the compound on the sensitivity of the RyR2 channel to Ca^2+ activation. To this end, [^3H]ryanodine binding to the RyR2 channel in a wide range of Ca^2+ concentrations may be measured. The sensitivity (EC50) of [^3H]ryanodine binding to RyR2 in the absence and presence of a particular compound may be determined.

mutant RyR2 channels = target: T2, mutant RyR2 channels (Mus musculus, UniProt E9Q401, R4495C); assay: [3H]ryanodine binding, basal channel activity of RyR2; assay type: biochemical
T2 construct: expressed in transfected cells; host or cells: HEK293 (cell lysate, detergent-solubilised)
Description: as §1
[^3H]Ryanodine binding has been widely used as a functional assay for assessing the activity of the RyR2 channel. […] These [^3H]ryanodine binding studies reveal whether suppression of SOICR by a compound is mediated by inhibition of the RyR2 channel activity.

RyR2-R4496C mutant = target: T3, RyR2-R4496C mutant (Mus musculus, UniProt E9Q401, R4495C); assay: SOICR in HEK293 cells expressing RyR2-R4496C mutant (fura-2 single cell Ca2+ imaging); assay type: cell-based
T3 construct: expressed in transfected cells; host or cells: HEK293
Description: as §1
This bioassay takes advantage of the finding that HEK293 cells expressing RyR2 mutants associated with cardiac arrhythmia and sudden death, readily display SOICR at elevated extracellular Ca^2+. […] This assay may be employed to determine the dose-dependent effect of each proposed compound on SOICR.
(§2) HEK293 cells may be loaded with a fluorescent Ca^2+ dye, fura-2-AM. SOICR, which manifests in the form of Ca^2+ oscillations, is continuously monitored by measuring the fluorescent changes using the single cell Ca^2+ imaging technique. Cells will be perfused with increasing concentrations (10 nM to 100 μM) of the compound. The frequency and amplitude of Ca^2+ oscillations under each condition will be determined and analyzed. Compounds that inhibit SOICR are expected to reduce the frequency of Ca^2+ oscillations, or abolish Ca^2+ oscillations.

RyR2-N4104K mutant = target: T4, RyR2-N4104K mutant (Mus musculus, UniProt E9Q401, N4103K); assay: SOICR in HEK293 cells expressing the N4104K RyR2 mutant; assay type: cell-based
T4 construct: expressed in transfected cells; host or cells: HEK293
Experimental: as §1, §2
Further verification of whether these identified compounds also work in cardiac cells, the effect of these compounds on SOICR in rat ventricular myocytes may also be determined. Rat ventricular myocytes may be isolated according to the standard procedure using enzymatic digestion. […] The intracellular Ca^2+ transients as a result of SOICR will be monitored by measuring the fluorescent intensity using a fluorescent microscope. Various concentrations of the selected compounds (10 nM to 100 μM) will be applied and the resulting changes in intracellular Ca^2+ transients will be determined and analyzed.

## COc1ccccc1OCCNCC(O)COc1cccc2[nH]c3ccccc3c12 (stereo not drawn) [Carvedilol]
β-adrenergic receptors
  fold by which β-adrenergic IC50 is lower than concentration required to inhibit RyR2-mediated SOICR: ~1,000 fold
RyR2 channel
  effect on Ca2+ dependence of [3H]ryanodine binding / sensitivity of RyR2 to Ca2+ activation: no significant effect
Mutant RyR2 channels
  IC50: ~30 µM
Mutant RyR2 channels; cell lysates, 3 nM Ca2+, various concentrations of drugs (FIG. 4C)
  effect on basal channel activity ([3H]ryanodine binding): inhibited basal channel activity
Mutant RyR2 channels; summary statement
  effect on channel activity of RyR2: selectively inhibits the channel activity of RyR2
RyR2-R4496C mutant; HEK293 RyR2-R4496C, 0.5 mM [Ca2+]o, 10 μM
  effect on SOICR: inhibited SOICR
RyR2-R4496C mutant; HEK293 cells expressing RyR2 mutants, elevated extracellular Ca2+, preliminary results
  concentration that abolishes SOICR: ~10 µM

## COc1cc(Cl)c(Cl)cc1OCCNCC(O)COc1cccc2[nH]c3ccccc3c12 (stereo not drawn) [Compound 1b]
RyR2-N4104K mutant; HEK293 RyR2-N4104K, 2 mM [Ca2+]o, various concentrations
  effect on SOICR: abolish SOICR
RyR2-N4104K mutant; HEK293 cells (FIG. 5)
  concentration at which SOICR is suppressed: ~30 µM
